“And” between values parts separate entries of the source, which are not always exact repeats. Identical values can stand only once. Only a part is listed here, and it is no random draw. Results filed as inconclusive are left out. The source made the active and inactive calls. Unless noted, the call rests on the fitted dose curve; in most records, active means well fitted curve in the direction sought with a large enough effect; inconclusive means small, poorly fitted or top-dose-only effect, or another doubt; inactive means no such curve, though single readings can be large; an effect the other way counts as inactive or inconclusive.
Tests used:
[1] = qHTS Assay for Inhibitors of Fructose-1,6-bisphosphate Aldolase from Giardia Lamblia: Giardia lamblia growth inhibition (AID 2785); settings: Giardia lamblia trophozoite growth inhibition; at 38.3 µM (top of the series); further: on the % scale 0 is the no-effect control and ±100 the full control effect; nearly all actives have a fitted effect of over 70% in size
Summary of the method: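 G. lamblia WB trophozoites (100 cells/well) were grown with compound at 37C for 48 h in modified TYI-S-33 medium, pH 7.0. Growth was measured by ATPlite luminescence after 20 min at room temperature.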

[2] = qHTS Assay for Inhibitors of Fructose-1,6-bisphosphate Aldolase from Giardia Lamblia: Mammalian cellular toxicity (AID 2786); settings: mammalian cell viability counter-screen; at 57.5 µM (top of the series);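 further: compound exposure lasted 48 h before reading; on the % scale 0 is the no-effect control and ±100 the full control effect; nearly all actives have a fitted effect of over 60% in size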
Summary of the method: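 CHO cells seeded at 250 cells/well with pin-tool-added compound, incubated 48 h at 37 °C, 5% CO2. Viability read as ATP content by ATPlite luminescence after 20 min.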

[3] = molecular target: Fructose-bisphosphate aldolase (Giardia intestinalis (strain ATCC 50803 / WB clone C6)) (UniProt A8B2U2); test: qHTS Assay for Inhibitors of Fructose-1,6-bisphosphate Aldolase from Giardia Lamblia: Primary screen confirmation (AID 2787); settings: purified Giardia aldolase enzyme activity; at 57.5 µM (top of the series);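 further: aldolase product measured through coupled diaphorase step turning resazurin into fluorescent resorufin; on the % scale 0 is the no-effect control and ±100 the full control effect; nearly all actives have a fitted effect of over 45% in size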
Summary of the method: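 Confirmation of primary hits by qHTS up to 57.5 uM final compound. Enzyme at 40 nM with 30 uM ZnCl2, 10 min RT pre-incubation, then substrate/coupling/resorufin-forming detection mix for 20 min before fluorescence read at 525/598 nm.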

[4] = molecular target: Fructose-bisphosphate aldolase A (Oryctolagus cuniculus) (UniProt P00883); test: qHTS Assay for Inhibitors of Fructose-1,6-bisphosphate Aldolase from Giardia Lamblia: Rabbit FBPA Selectivity (AID 2794); settings: Rabbit muscle FBPA enzyme inhibition, selectivity counter-screen; at 57.5 µM (top of the series); further: on the % scale 0 is the no-effect control and ±100 the full control effect; nearly all actives have a fitted effect of over 60% in size
Summary of the method: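 To triage Class I aldolase inhibitors, rabbit FBPA activity is followed through a glyceraldehyde-3-phosphate-linked enzyme cascade feeding AmpLite Red. Compounds (up to 57.5 uM final) sit 10 min with coupling enzymes before substrate; fluorescence is read 20 min later.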

[5] = qHTS Assay for Inhibitors of Fructose-1,6-bisphosphate Aldolase from Giardia Lamblia: Coupling assay counterscreen confirmation (AID 2795); settings: GAPDH coupling enzyme counterscreen, biochemical; at 57.5 µM (top of the series); further: on the % scale 0 is the no-effect control and ±100 the full control effect; nearly all actives have a fitted effect of over 55% in size
Summary of the method: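 Compounds at up to 57.5 uM final tested against the coupling enzymes and resorufin-type fluorescent detection only, aldolase omitted. Ex 525 nm/em 598 nm read after 10 min enzyme-compound and 20 min substrate incubations, room temperature.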

[6] = NFAT Signaling Pathway (AID 444; active means well fitted curve in either direction with a large enough effect, not every such curve was filed as active;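 further: carbachol stimulus at about its EC50 of 1 µM final; on the % scale 0 is the no-effect control and ±100 the full control effect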); settings: Jurkat NFAT-bla M1, carbachol, beta-lactamase ratio, 5 h; at 7.69 µM (top of the series) unless noted
[7] = molecular target: Guanine nucleotide-binding protein G(i) subunit alpha-1 (Homo sapiens) (UniProt P63096); test: qHTS Assay for Inhibitors of RGS12 GoLoco Motif Activity (Green Fluorophore) (AID 879); settings: Galphai1/FITC-RGS12 GoLoco peptide, fluorescence polarization; at 57.1 µM (top of the series);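 further: 0% = labeled peptide with Gαi1 and full inhibition = labeled peptide alone without protein; negative values mean loss of peptide binding seen as reduced polarization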
Summary of the method: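 Fluorescence polarization assay: 50 nM Gαi1 with 10 nM FITC-labeled RGS12 GoLoco peptide in 10 mM Tris pH 7.5, 150 mM NaCl, 0.1 mM GDP, 0.05% NP40, 10 min at room temperature with compound.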

[8] = qHTS Assay for Identification of Small Molecule Agonists for Thrombopoietin (TPO) Signaling Pathway (AID 917); settings: TPO signaling pathway reporter cells, agonist qHTS, stimulated with TPO at its EC50; at 38.5 µM (top of the series); further: on the % scale 0 is the no-effect control and ±100 the full control effect
[9] = molecular target: Alpha-galactosidase A (Homo sapiens) (UniProt P06280); test: Counterscreen for Glucocerebrosidase Inhibitors: qHTS Assay for Human alpha-Galactosidase at pH 4.5 (AID 992); settings: purified enzyme, fluorogenic substrate; at 76.9 µM (top of the series); further: 0% is about no effect
Summary of the method: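 Human enzyme (2 nM) with 80 uM 4-methylumbelliferyl alpha-D-galactopyranoside in 50 mM citric acid, 0.005% Tween-20, pH 4.5, 20 min at room temperature. Compounds 0.7 nM–77 uM; fluorescence Ex 365/Em 440 after pH 10 stop; AC50 from Hill fits.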

[10] = molecular target: alpha-glucosidase (Oryza sativa, rice) (UniProt Q653V4); test: Counterscreen for Glucocerebrosidase Inhibitors: qHTS Assay for Rice alpha-Glucosidase at pH 5.0 (AID 997); settings: rice alpha-glucosidase enzyme activity; at 76.9 µM (top of the series);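 further: 0% = full activity with enzyme and -100% = basal without enzyme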
Summary of the method: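 Rice alpha-glucosidase (4 nM final) with 400 uM 4-methylumbelliferyl-alpha-D-glucopyranoside in citrate buffer pH 5.0, 20 min at room temperature, stopped at pH 10; fluorescence 365/440 nm, compounds 0.7 nM–77 uM, AC50 from Hill fits.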

[11] = Validation of Assay for Modulators of Lamin A Splicing (AID 1459; active means well fitted curve in the direction sought with a large enough effect in the signal ratio; the % refers to the signal ratio;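 further: cells exposed to compound for two days before reading; 0% is about no effect; ratio rise marks activators and ratio drop marks inhibitors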); settings: Lamin A splicing dual RFP/GFP fluorescence reporter; at 9.22 µM (top of the series)
Summary of the method: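 Readout: ratio of GFP (500-530 nm) to RFP (575-640 nm) total object intensity by 488 nm laser-scanning cytometry after 48 hrs. Cells were HeLa S3 clones carrying lamin A-EGFP minigene plus DsRed2 viability reporter; vehicle 0.5% DMSO final.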

[12] = molecular target: DNA repair nuclease/redox regulator APEX1 (Homo sapiens) (UniProt P27695); test: qHTS Validation Assay for Inhibitors of the Human Apurinic/apyrimidinic Endonuclease 1 (APE1) (AID 1705;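 further: TAMRA fluorescence gain over two minutes as APE1 cuts a quenched THF abasic duplex; on the % scale 0 is the no-effect control and ±100 the full control effect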); settings: purified APE1 endonuclease activity, fluorescence, titration; at 57.1 µM (top of the series)
Summary of the method: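 Read-out: TAMRA fluorescence (525 nm ex, 598 nm em) from cleavage of a quenched THF abasic-site duplex, 50 nM final; activity taken as intensity change between third and first of three reads 60 s apart.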

[13] = Counterscreen for APE1 Inhibitors: Fluorescent Dye Displacement Validation Assay (AID 1707); settings: fluorescent dye displacement from DNA; at 57.1 µM (top of the series);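 further: plate controls were ThO with dsDNA and no compound for no effect and ThO without dsDNA for full effect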
Summary of the method: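 Thiazole Orange (250 nM) bound to 50 nM TAMRA-labelled dsDNA with tetrahydrofuran abasic site; displacement by DNA-binding compounds lowers fluorescence. Buffer 50 mM Tris-HCl pH 7.5, 50 mM NaCl, 2 mM MgCl2, 0.01% Tween-20; endpoint read at 480/540 nm.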

[14] = molecular target: ATP-dependent DNA helicase Q1 (Homo sapiens) (UniProt P46063); test: qHTS Validation Assay for Inhibitors of RecQ-Like Dna Helicase 1 (RECQ1) (AID 2353); settings: recombinant RECQ1 helicase DNA unwinding assay; at 25.6 µM (top of the series);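 further: plate controls were DMSO vehicle for no effect and enzyme-free control for full effect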
Summary of the method: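 50 nM RECQ1T1 preincubated 15 min with compound in Tris pH 8.0 buffer with MgCl2, DTT, Tween-20 and 2.5 ug/ml poly(dI-dC); started with 200 nM TAMRA/BHQ-2 forked duplex and 2 mM ATP. Unwinding read as fluorescence (525/598 nm), two reads 2 h apart.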

[15] = molecular target: RecQ-like DNA helicase BLM (Homo sapiens) (UniProt P54132); test: qHTS Validation Assay for Inhibitors of Bloom's syndrome helicase (BLM) (AID 2364); settings: BLM helicase DNA unwinding, fluorescence, in vitro; at 57.1 µM (top of the series);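 further: plate controls were DMSO vehicle for no effect and enzyme-free control for full effect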
[16] = Validation screen for small molecules that induce DNA re-replication in MCF 10A normal breast cells (AID 463097); settings: MCF 10A cells, DNA re-replication phenotype imaging; at 46.1 µM (top of the series); further: 0% is about no effect; nearly all actives have a fitted effect of over 60% in size
Summary of the method: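 250 MCF 10A cells/well; compound pin-transferred; 48 hr, 37 C, 5% CO2; Hoechst 40 min; imaged 405/500-530 nm. Hits = more high-intensity nuclei.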

[17] = molecular target: Thyrotropin-releasing hormone receptor (Homo sapiens) (UniProt P34981); test: qHTS for Small Molecule Agonists and Allosteric Enhancers of Human TRH Receptor: Validation Screen for Agonists (AID 493127;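 active means calcium activation more than 3 SD above the typical response in the agonist read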;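 further: intracellular calcium rise by fluo-8 fluorescence before TRH EC20 addition; 0% is about no effect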); settings: TRH receptor agonist cell assay; at 2 µM; active compounds read high
Summary of the method: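 Cells 2000/well, 10% FCS, 18 h 33.5C/5% CO2 → fluo-8 Ca dye, RT 30 min–1.5 h → FDSS baseline 10 × 1 s → compound added → 230 cycles (1 s/cycle) agonist mode. TRH controls.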

[18] = molecular target: Galactokinase (Homo sapiens) (UniProt P51570); test: qHTS Validation Assay for Inhibitors of Human Galactokinase (GALK) (AID 493189); settings: purified human GALK enzyme activity, qHTS 7-point titration; at 57.5 µM (top of the series); further: 0% is about no effect
Summary of the method: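 Luminescence from leftover ATP (Kinase-Glo Plus, 10 min) served as read-out after a 1 h room-temperature reaction of 5 nM GALK, 100 uM galactose and 35 uM ATP at pH8.0.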

[19] = Validation screen for small molecules that induce DNA re-replication in SW480 colon adenocarcinoma cells (AID 504364); settings: DNA re-replication phenotype (high-content imaging); at 46.1 µM (top of the series); further: 0% is about no effect
Summary of the method: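 250 cells/well; compound pinned in; 48 hr, 37 C, 5% CO2; Hoechst added, 40 min; nuclear fluorescence imaged, 405 ex / 500-530 em; re-replication scored as increase in high-intensity nuclei.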

[20] = Stat Signaling Pathway (AID 446; active means well fitted curve in either direction with a large enough effect, not every such curve was filed as active;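 further: ME-180 cervical cancer cells given 40 pM IL-6 alongside compound; SIE-controlled beta-lactamase reporter measured as 460/530 nm FRET emission ratio; on the % scale 0 is the no-effect control and ±100 the full control effect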); settings: ME-180 SIE beta-lactamase reporter, IL-6 stimulated, 5 h; at 7.69 µM (top of the series) unless noted
Summary of the method: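 ME-180 cells carrying a SIE-driven beta-lactamase reporter are stimulated with 40 pM IL-6 for 5 h at 37C in the presence of compound. The 460/530 nm FRET substrate ratio is read after 2.5 h at RT. Data are normalised to 300 pM IL-6 and to 125 nM JAK inhibitor controls.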

[21] = molecular target: Mitogen-activated protein kinase 10 (Mus musculus) (UniProt Q61831); test: JNK3 AlphaScreen Assay (AID 530; active means well fitted curve in either direction with a large enough effect, not every such curve was filed as active); settings: JNK3 lysate, c-Jun phosphorylation; at 11.4 µM (top of the series) unless noted
Summary of the method: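 Pre-activated (IL-1β/TNFα) JNK3 in HepG2 lysates phosphorylates biotin-GST-cJun(1-79), 10 uM ATP; anti-phospho-cJun(Ser73) AlphaScreen read at room temperature, pH 7.6 Tris buffer. Compounds pre-incubated 15 min as titrations.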

[22] = molecular target: 3',5'-cyclic-AMP phosphodiesterase 4B (Homo sapiens) (UniProt Q07343); test: qHTS Assay for Inhibitors of PDE-IV (AID 607; active means well fitted activation curve with a large enough effect in the main read-out, with a control signal flat, not every such curve was filed as active; further: % of control where 0% means no effect); settings: HEK293 ACTOne CNG channel cells, membrane potential fluorescence; at 22.9 µM (top of the series)
Summary of the method: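 HEK293 ACTOne cells with CNG channel (1000/well), endogenous PDE4; membrane potential dye, compounds up to 22.9 uM final. Fluorescence Ex 535/Em 590; RO 20-1724 (100 uM final) as reference.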

CCCOP(=S)(Nc1nc(N)cc(=O)[nH]1)OCCC
inactive: activity change, negative = inhibition [1] -4.36% | viability change, negative = toxicity [2] -5.04% | activity change, negative = inhibition [3] 3.21% | activity, negative = inhibition [4] 2.8% | activity change, negative = inhibition [5] -5.88%

CN(C(=O)Cc1ccc(Cl)c(Cl)c1)[C@@H]1CCCC[C@H]1N1CCCC1
inactive: activity change, negative = inhibition [6] -24.9% [at 38 µM] and -25.8% [at 38 µM] and -25.5% [at 38 µM] | activity, negative = inhibition [7] 2.12% [middle of 4 runs] | activity, positive = activation [8] 0.417% [middle of 4 runs] | activity change, negative = inhibition [9] -4.4% [middle of 4 runs] | activity change, negative = inhibition [10] -3.22% [middle of 4 runs] | ratio change, both ways [11] -12.9% | activity change, negative = inhibition [12] 1.51% | activity change, negative = inhibition [13] 0.28% | activity change, negative = inhibition [14] -1.57% | activity change, negative = inhibition [15] -2.97% | re-replication induction [16] 0.0327% | activation [17] -0.125% | activity change, negative = inhibition [18] -0.819% | activity (re-replication induction) [19] 14.1%

C[C@@H](O)COc1ccc([As](=O)(O)O)cc1N
inactive: activity change, negative = inhibition [6] 3.4% | activity, negative = inhibition [20] 5.45% | activity change, negative = inhibition [21] 3.22% | activation (PDE inhibition) [22] -3.38%
